Data on 26 compounds can be found in PubChem BioAssay AID624169 (The Scripps Research Institute Molecular Screening Center, 2012).

By UniProt entry, the sequences of proteins in these tests, tags left out.
UniProt P35363, whole entry: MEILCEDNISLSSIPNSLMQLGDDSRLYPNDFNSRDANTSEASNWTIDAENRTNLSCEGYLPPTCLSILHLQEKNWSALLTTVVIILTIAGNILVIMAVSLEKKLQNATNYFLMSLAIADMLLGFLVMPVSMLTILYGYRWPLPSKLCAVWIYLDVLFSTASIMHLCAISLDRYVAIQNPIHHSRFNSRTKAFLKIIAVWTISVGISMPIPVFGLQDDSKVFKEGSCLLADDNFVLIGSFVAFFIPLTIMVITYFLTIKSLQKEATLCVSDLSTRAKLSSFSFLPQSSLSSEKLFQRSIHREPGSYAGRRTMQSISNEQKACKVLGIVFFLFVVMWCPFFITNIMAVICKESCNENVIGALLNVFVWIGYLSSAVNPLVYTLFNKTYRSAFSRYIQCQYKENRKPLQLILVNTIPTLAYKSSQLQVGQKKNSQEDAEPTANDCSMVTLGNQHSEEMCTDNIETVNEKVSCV

The structures appear in SMILES notation. The entries are a selection whose mix differs from that of the whole data set. Some of these compounds have results that are not shown, active ones among them. Active and inactive are the calls of the source.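 Rule for the calls: active = activation above a run cutoff, the mean activation of all tested compounds plus 3 SD (cut at about 14% in these data); inactive = the rest.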

The assay concerns the target 5-hydroxytryptamine receptor 2A (Mus musculus) (UniProt P35363). Put plainly: mouse Htr2a agonists via beta-arrestin recruitment, primary screen, cell-based, luminescence (AID 624169).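 Note: 0% = plate median of compound wells and 100% = 30 µM serotonin.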 The conditions noted are these: CHO-K1 mHTR2A beta-arrestin complementation, at 7.6 µM, active compounds read high, percent of 30 µM serotonin response.
As for `Cc1ccccc1C(=O)NCC1(N2CCCCC2)CCCCC1`, the activation is inactive: -0.46%.
For `CN(C)C1CCCC1OC(=O)C(O)(c1ccccc1)c1ccccc1` (stereo unspecified) the value was inactive: -3.32%; for `CN(C)c1ccc(C(=O)NCC2(N(C)C)CCCCC2)cc1`, inactive: -4.82%; for `C=CCN1CCN(CCOC(=O)C(O)(c2ccccc2)c2ccccc2)CC1`, inactive: -0.68%.
For `O=C(NCC1(N2CCCCC2)CCCCC1)c1cc(F)c(F)cc1Cl` the value was inactive: -0.53%; for `Cc1cc(C(=O)NCC2(N3CCCCC3)CCCCC2)ccc1[N+](=O)[O-]`, inactive: -10.9%.
The result for `CCN1CCCC(OC(=O)C2(O)c3ccccc3C=Cc3ccccc32)C1` (stereo unspecified) reads inactive: -3.09%; that for `O=C(NCC1(N2CCCCC2)CCCCC1)c1cccc(Br)c1`, inactive: -7.82%; that for `COc1ccc(C(=O)NCC2(N(C)C)CCCCC2)cc1`, inactive: -0.97%.
Take `O=C(NCC1(N2CCCCC2)CCCCC1)c1cc([N+](=O)[O-])ccc1Cl`: the activation is inactive: -3.16%.
For `CN1[C@@H]2CC[C@H]1CC(OC(=O)C(O)(c1ccccc1)c1ccccc1)C2` (stereo partly specified) the value was inactive: -8.31%; for `CC(C)N1C(=O)CC2(CCN(CCOC(=O)C(O)(c3ccccc3)c3ccccc3)CC2)C1=O`, inactive: 2.77%.
`CCN(CC)CC(C)C(C)OC(=O)C(O)(c1ccccc1)c1ccccc1` (stereo unspecified): the activation is inactive: 2.64%.
For `COc1cc(SC)ccc1C(=O)NCC1(N(C)C)CCCCC1` the value was inactive: -11.5%; for `Cc1ccc(C(=O)NCC2(N3CCCCC3)CCCCC2)cc1`, inactive: -4.34%.
For `O=C(OC1CN2CCC1CC2)C(CO)(c1ccccc1)c1ccccc1` (stereo unspecified) the value was inactive: -2.58%.
Regarding `COc1ccc(Br)c(C(=O)NCC2(N3CCCCC3)CCCCC2)c1`, the activation is inactive: -2.18%.
The result for `C=C(C)C#CC(O)(C(=O)OC1CCN(C)CC1)c1ccccc1` (stereo unspecified) reads inactive: 1.04%.
The result for `CN(C)c1cccc(C(=O)NCC2(N(C)C)CCCCC2)c1` reads inactive: -6.05%; that for `CC(C)Oc1ccc(C(=O)NCC2(N(C)C)CCCCC2)cc1`, inactive: -7.59%.
For `O=C(OCCN1CCCC1)C(O)(c1ccccc1)c1ccccc1` the value was inactive: 0.41%; for `CN(C)C1(CNC(=O)c2ccc(Br)cc2)CCCCC1`, inactive: -0.9%.
For `COc1cc(C(=O)NCC2(N(C)C)CCCCC2)c([N+](=O)[O-])cc1OC`, the activation was inactive: 0.23%.
For `COc1cccc(C(=O)NCC2(N3CCCCC3)CCCCC2)c1` the value was inactive: -2.58%; for `COc1ccc(Cl)cc1C(=O)NCC1(N(C)C)CCCCC1`, inactive: -7.24%.
Turning to `O=C(NCC1(N2CCCCC2)CCCCC1)c1cccc(Cl)c1`, the activation is inactive: -15.3%.
